scFv variants of Ab-14 (heavy chain) against a SARS-CoV-2 spike peptide

Source: Li et al. 2023 (doi:10.1038/s41467-023-39022-2), MIT Lincoln Laboratory and A-Alpha Bio; data file from the FLAb repository.

Target: peptide PDVDLGDISGINAS, taken from heptad repeat 2 (HR2) of SARS-CoV-2 spike.

Parent scFv Ab-14: VH joined to VL by the linker GGGGSGGGGSGGGGS. Changes lie in the heavy chain CDRs alone.
VH: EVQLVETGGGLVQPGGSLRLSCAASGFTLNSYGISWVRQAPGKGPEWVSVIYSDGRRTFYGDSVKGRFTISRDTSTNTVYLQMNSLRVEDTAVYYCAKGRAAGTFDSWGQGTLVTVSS
VL: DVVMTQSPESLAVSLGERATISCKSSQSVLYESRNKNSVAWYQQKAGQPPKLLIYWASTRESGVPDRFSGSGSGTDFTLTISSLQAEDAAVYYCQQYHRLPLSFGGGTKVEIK

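The starting antibody came from a phage panning campaign against this peptide. Designed CDR sequences, proposed from the first random library and measured here. Several design methods are mixed in this list. In AlphaSeq, yeast of one mating type display the scFv and yeast of the other type display the target. Pairs that bind mate more often; barcode pairs of the diploids are counted by sequencing. A regression on co-assayed BCL2-family reference pairs converts the normalised counts of each replicate to an apparent Kd. Mating was done six times.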

Each variant's VH is given in full.
Variants here have more than six changes.
Numbers give log10(Kd / nM), so 0 is 1 nM and 3 is 1 µM. Smaller is tighter.
Averages over replicates are reported, and they cover detected replicates only.
A pair that was not seen in any replicate is written "no signal"; this usually means weak binding, but a binder can also be missed.
Empty control strains, which show no peptide, gave a signal in 1% of pairings with all heavy chain designs; the median was 2.08 and 95% of these signals were weaker than 0.84. No background was subtracted. For each scFv, signals with the empty controls are counted beside the result.
The authors averaged sequences with at least three values out of six and counted those with two or fewer as poor binders.
Of ten entries with the parent sequence, four were seen in most replicates (averages 0.34 to 2.37), three in one and three in none, so single entries are noisy.
Values of this round are not directly comparable with the first-round values of the same sequences.

Variant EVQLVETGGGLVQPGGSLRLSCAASGFDLSEYGISWVRQAPGKGPEWVSVIYADGQRANYVSQVKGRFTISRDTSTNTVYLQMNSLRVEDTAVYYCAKGEQAGGFVLWGQGTLVTVSS gave no signal (0 of 6 replicates; controls 0 of 18).
Variant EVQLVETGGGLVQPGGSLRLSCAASGFDLNEYGISWVRQAPGKGPEWVSVIYADGRRTFYSDSVKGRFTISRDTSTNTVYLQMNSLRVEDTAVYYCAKGAVAGTFDKWGQGTLVTVSS gave -0.57 (6 of 6 replicates; controls 0 of 18).
Variant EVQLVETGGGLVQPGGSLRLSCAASGIDLEKYGISWVRQAPGKGPEWVSVIYADGMRASYSDAVKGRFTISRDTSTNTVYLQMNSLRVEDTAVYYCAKGDLSGTFYIWGQGTLVTVSS gave 3.27 (1 of 6 replicates; controls 0 of 18).
Variant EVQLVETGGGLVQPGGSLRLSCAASGMDLNEYGISWVRQAPGKGPEWVSVIYADGRRTAYINQVKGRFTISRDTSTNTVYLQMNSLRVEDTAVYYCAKGSQSDIVSSWGQGTLVTVSS gave no signal (0 of 6 replicates; controls 0 of 18).
Variant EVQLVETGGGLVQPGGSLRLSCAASGFDLNEYGISWVRQAPGKGPEWVSVIYADGMRQAYADSVKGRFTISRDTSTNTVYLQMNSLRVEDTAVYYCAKGNVAGTFDIWGQGTLVTVSS gave -0.34 (6 of 6 replicates; controls 0 of 18).
Variant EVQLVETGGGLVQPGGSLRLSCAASGKSLNEFGISWVRQAPGKGPEWVSVIYADGVRRAYADDVKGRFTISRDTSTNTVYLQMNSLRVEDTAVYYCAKGNLAGHFISWGQGTLVTVSS gave no signal (0 of 6 replicates; controls 2 of 18).
Variant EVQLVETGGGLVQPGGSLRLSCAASGFDLNEYGISWVRQAPGKGPEWVSVIYADGQRTYYADSVKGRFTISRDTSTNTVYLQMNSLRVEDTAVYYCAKGTNAGTFDVWGQGTLVTVSS gave -0.47 (6 of 6 replicates; controls 0 of 18).
Variant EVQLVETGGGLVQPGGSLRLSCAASGFDLNEYGISWVRQAPGKGPEWVSVIYADGMRTFYTDNVKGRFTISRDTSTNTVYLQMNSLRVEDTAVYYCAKGQNAGTFDSWGQGTLVTVSS gave -0.67 (6 of 6 replicates; controls 0 of 18).
Variant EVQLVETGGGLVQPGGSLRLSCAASGFDLNEYGISWVRQAPGKGPEWVSVIYADGVRTAYADSVKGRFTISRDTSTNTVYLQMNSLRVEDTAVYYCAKGEAAGTFDSWGQGTLVTVSS gave -0.27 (6 of 6 replicates; controls 0 of 18).
Variant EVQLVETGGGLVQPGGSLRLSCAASGMDLQEYGISWVRQAPGKGPEWVSVIYSDGVREAYTNSFKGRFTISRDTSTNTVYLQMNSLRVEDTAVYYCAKGQIAGTIDLWGQGTLVTVSS gave no signal (0 of 6 replicates; controls 0 of 18).
Variant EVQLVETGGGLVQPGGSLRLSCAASGFDLNDYGISWVRQAPGKGPEWVSVIYADGRRTAYIDSVKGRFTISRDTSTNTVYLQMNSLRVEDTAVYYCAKGEVAGTFDSWGQGTLVTVSS gave -0.26 (6 of 6 replicates; controls 0 of 18).
Variant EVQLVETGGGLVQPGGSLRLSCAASGFDLDEYGISWVRQAPGKGPEWVSVIYADGSRTAYADSVKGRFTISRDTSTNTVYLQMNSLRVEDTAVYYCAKGNNAGTFDVWGQGTLVTVSS gave -0.28 (6 of 6 replicates; controls 0 of 18).
Variant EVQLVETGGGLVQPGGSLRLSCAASGYDLQDYGISWVRQAPGKGPEWVSVIYADGVRQFYHDNFKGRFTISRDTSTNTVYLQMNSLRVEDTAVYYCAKGQLAGTFLLWGQGTLVTVSS gave no signal (0 of 6 replicates; controls 0 of 18).
Variant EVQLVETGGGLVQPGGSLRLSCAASGFDLNEYGISWVRQAPGKGPEWVSVIYADGMRTFYTDSVKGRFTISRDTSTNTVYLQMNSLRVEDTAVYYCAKGESAGTFDSWGQGTLVTVSS gave -0.31 (6 of 6 replicates; controls 0 of 18).
Variant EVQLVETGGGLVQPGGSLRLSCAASGFDLNEYGISWVRQAPGKGPEWVSVIYADGRRTAYIDDVKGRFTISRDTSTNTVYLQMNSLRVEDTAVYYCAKGEAAGTFDIWGQGTLVTVSS gave -0.32 (6 of 6 replicates; controls 0 of 18).
Variant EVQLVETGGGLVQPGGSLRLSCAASGDSLNEYGISWVRQAPGKGPEWVSVIYADGSRSKYADAFKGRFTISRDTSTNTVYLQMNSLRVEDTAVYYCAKGQVAGYFGVWGQGTLVTVSS gave no signal (0 of 6 replicates; controls 1 of 18).
Variant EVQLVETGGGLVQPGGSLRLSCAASGFDLNEYGISWVRQAPGKGPEWVSVIYADGRRTAYIDSVKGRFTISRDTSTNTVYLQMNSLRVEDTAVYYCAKGEEAGTFDKWGQGTLVTVSS gave 0.11 (6 of 6 replicates; controls 0 of 18).
Variant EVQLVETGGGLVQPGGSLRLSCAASGFDLNEYGISWVRQAPGKGPEWVSVIYADGVRTFYADSVKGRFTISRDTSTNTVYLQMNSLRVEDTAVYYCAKGENAGTFDTWGQGTLVTVSS gave -0.40 (6 of 6 replicates; controls 0 of 18).
Variant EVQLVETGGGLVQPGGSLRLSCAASGFDLNEYGISWVRQAPGKGPEWVSVIYADGLRTAYADDVKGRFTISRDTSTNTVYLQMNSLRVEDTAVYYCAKGNVAGTFDIWGQGTLVTVSS gave no signal (0 of 6 replicates; controls 1 of 18).
Variant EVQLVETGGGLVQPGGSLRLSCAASGEQLDEYGISWVRQAPGKGPEWVSVIYADGRKQYYANSVKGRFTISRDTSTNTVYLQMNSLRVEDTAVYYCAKGDSADVFDLWGQGTLVTVSS gave no signal (0 of 6 replicates; controls 0 of 18).

Repeated from above, the 2 best binders with a signal in all replicates:

| VH | mean log10 Kd (nM) | replicates with signal | control signals |
|---|---|---|---|
| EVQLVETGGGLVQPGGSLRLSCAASGFDLNEYGISWVRQAPGKGPEWVSVIYADGMRTFYTDNVKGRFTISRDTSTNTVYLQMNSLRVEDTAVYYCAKGQNAGTFDSWGQGTLVTVSS | -0.67 | 6 of 6 | 0 of 18 |
| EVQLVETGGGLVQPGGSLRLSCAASGFDLNEYGISWVRQAPGKGPEWVSVIYADGRRTFYSDSVKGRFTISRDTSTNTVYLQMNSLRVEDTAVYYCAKGAVAGTFDKWGQGTLVTVSS | -0.57 | 6 of 6 | 0 of 18 |